The test system of experiment [1] is Mus musculus. As to the kind of experiment: Antinociceptive activity in acetic acid induced abdominal constriction assay after sc administration and abolished by naloxone administered at 3 mg/kg sc in mice. Conditions: route subcutaneous, Abdomen.
In experiment [2] the test system is Mus musculus. As to the kind of experiment: Antinociceptive activity against naloxone, after 3 mg/kg, sc administration in female mice(Alderley park strain),. Conditions: route subcutaneous.

The values below come from ChEMBL document CHEMBL1125782, “Structure/activity studies related to 2-(3,4-dichlorophenyl)-N-methyl-N-[2-(1-pyrrolidinyl)-1-substituted- ethyl]acetamides: a novel series of potent and selective kappa-opioid agonists” (1991).

Structures are written as SMILES.

With `COc1ccc(C(CN2CCCC2)N(C)C(=O)Cc2ccc(Cl)c(Cl)c2)cc1OC` (stereo unspecified), the 50% effect level with Mus musculus [1] (ED50) was put at a dose of 0.05 mg/kg.
On the same count and under the same terms, next, `CNc1cccc(C(CN2CCCC2)N(C)C(=O)Cc2ccc(Cl)c(Cl)c2)c1` (stereo unspecified): 0.081 mg/kg; `CN(C(=O)Cc1ccc(Cl)c(Cl)c1)C(CN1CCCC1)c1ccc(O)cc1` (stereo unspecified): 0.045 mg/kg.
On the same count and under the same terms, next, `CN(C(=O)Cc1ccc(Cl)c(Cl)c1)[C@H](CN1CC=CC1)c1ccccc1`: 0.005 mg/kg; `CC(C)C[C@@H](CN1CCCC1)N(C)C(=O)Cc1ccc(Cl)c(Cl)c1`: 0.01 mg/kg; `C[C@@H](CN1CCCC1)N(C)C(=O)Cc1ccc(Cl)c(Cl)c1`: 0.86 mg/kg.
Still for that read-out and setting: the value for `CC(C)[C@H](CN1CCCC1)N(C)C(=O)Cc1ccc(Cl)c(Cl)c1` was above 10 mg/kg.
In turn, `CN(C(=O)Cc1ccc(Cl)c(Cl)c1)C(CN1CCCC1)c1cccc(Cl)c1` (stereo unspecified) came in with an ED50 in the experiment on Mus musculus [1] of 0.086 mg/kg.
The same measure, in the same setting: next, `CC(=O)Nc1cccc(C(CN2CCCC2)N(C)C(=O)Cc2ccc(Cl)c(Cl)c2)c1` (stereo unspecified): 0.03 mg/kg.
As to `CC(C)[C@@H](CN1CCCC1)N(C)C(=O)Cc1ccc(Cl)c(Cl)c1`, the 50% effect level in the experiment on Mus musculus [2] (ED50) was put at a dose of 0.05 mg/kg.
In the case of `CN(C(=O)Cc1ccc(Cl)c(Cl)c1)C(CN1CCCC1)c1cccc(O)c1` (stereo unspecified), in the experiment with Mus musculus [1], the 50% effective dose (ED50) came to 0.055 mg/kg.
Same read-out and setting: the value for `COc1ccc(C(CN2CCCC2)N(C)C(=O)Cc2ccc(Cl)c(Cl)c2)cc1` (stereo unspecified) was 0.12 mg/kg.
The same measure, in the same setting: next, `CC(C)[C@@H](CN1CCCCC1)N(C)C(=O)Cc1ccc(Cl)c(Cl)c1`: 0.075 mg/kg; `COc1cccc(C(CN2CCCC2)N(C)C(=O)Cc2ccc(Cl)c(Cl)c2)c1` (stereo unspecified): 0.03 mg/kg.
On the same count and under the same terms, the value for `CN(C(=O)Cc1ccc(Cl)c(Cl)c1)C(CN1CCCC1)C(C)(C)C` (stereo unspecified) was 0.03 mg/kg; that for `COc1ccccc1C(CN1CCCC1)N(C)C(=O)Cc1ccc(Cl)c(Cl)c1` (stereo unspecified) was 0.04 mg/kg; that for `CC[C@@H](CN1CCCC1)N(C)C(=O)Cc1ccc(Cl)c(Cl)c1` was 0.43 mg/kg.
`COc1ccc(C(CN2CCCC2)N(C)C(=O)Cc2ccc(Cl)c(Cl)c2)c(OC)c1` (stereo unspecified) displayed a median effective dose (ED50) in the experiment with Mus musculus [1] of 0.19 mg/kg. Compared with the last molecule, the ED50 is about 2.3-fold lower.
Still for that read-out and setting: next, `CSc1ccc(C(CN2CCCC2)N(C)C(=O)Cc2ccc(Cl)c(Cl)c2)cc1` (stereo unspecified): 0.32 mg/kg.
The same measure, in the same setting: the value for `CCC[C@@H](CN1CCCC1)N(C)C(=O)Cc1ccc(Cl)c(Cl)c1` was 0.12 mg/kg; that for `CCC(C)[C@@H](CN1CCCC1)N(C)C(=O)Cc1ccc(Cl)c(Cl)c1` (stereo partly specified) was 0.012 mg/kg.

Broadly, the ED50 is the dose at which the effect has come halfway, by size or by number of responders.
